The values that follow come from patent publication US20220331442A1, “ANTIBODY-BIOMOLECULE CONJUGATES LINKED THROUGH MULTIFUNCTIONAL MACROMOLECULE AND USES THEREOF” (LEVIM BIOTECH LLP, priority 2018, published 2022).

For the series, the system named is H23 NSCLC cells. The series is described as follows: MTT cytotoxicity assay. In general terms: Tetrazolium dyes change colour on reduction, which living cells bring about.

With “cetuximab: monoclonal antibody used as the targeting moiety for human epidermal growth factor receptor (EGFR)”, the “Cytotoxicity (MTT)” value runs as follows: (0.5 μM test substance, presence of siRNA and gefitinib 0, 0.1, 0.5, 1 and 5 μM, FIG. 21(a)) “negligible toxicity”; (absence of siRNA and TKI (gefitinib), FIG. 18) “negligible toxicity”.
